Experimental data from ChEMBL document CHEMBL1144010, “Synthesis and in vitro opioid receptor functional antagonism of analogues of the selective kappa opioid receptor antagonist (3R)-7-hydroxy-N-((1S)-1-{[(3R,4R)-4-(3-hydroxyphenyl)-3,4-dimethyl-1-piperidinyl]methyl}-2-methylpropyl)-1,2,3,4-tetrahydro-3-isoquinolinecarboxamide (JDTic)” (J Med Chem, 2008).

The chains behind the UniProt entries cited, without tags or fusion partners. Where a name states a change or a piece, a line headed by the entry shows the natural chain unless it says otherwise.
UniProt P35372, whole entry: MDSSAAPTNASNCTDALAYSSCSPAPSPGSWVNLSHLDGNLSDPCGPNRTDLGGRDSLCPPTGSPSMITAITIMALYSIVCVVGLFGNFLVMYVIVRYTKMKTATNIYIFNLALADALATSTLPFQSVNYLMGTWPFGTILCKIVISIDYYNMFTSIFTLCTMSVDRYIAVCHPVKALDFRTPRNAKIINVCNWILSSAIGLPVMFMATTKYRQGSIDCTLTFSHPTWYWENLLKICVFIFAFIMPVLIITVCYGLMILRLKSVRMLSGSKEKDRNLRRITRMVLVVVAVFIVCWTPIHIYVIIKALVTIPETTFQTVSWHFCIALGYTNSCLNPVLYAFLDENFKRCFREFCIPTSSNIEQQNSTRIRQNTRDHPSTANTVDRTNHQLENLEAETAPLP
UniProt P41145: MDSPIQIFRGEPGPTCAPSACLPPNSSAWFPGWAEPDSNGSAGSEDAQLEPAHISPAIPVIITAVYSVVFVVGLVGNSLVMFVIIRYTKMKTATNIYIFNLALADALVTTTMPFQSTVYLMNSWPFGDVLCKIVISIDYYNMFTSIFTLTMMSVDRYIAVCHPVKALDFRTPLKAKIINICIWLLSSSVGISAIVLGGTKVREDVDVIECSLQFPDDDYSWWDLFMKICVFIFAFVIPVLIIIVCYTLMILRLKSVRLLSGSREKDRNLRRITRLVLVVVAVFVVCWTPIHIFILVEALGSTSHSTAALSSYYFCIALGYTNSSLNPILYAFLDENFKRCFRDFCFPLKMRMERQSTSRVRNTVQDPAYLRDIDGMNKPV
UniProt P41143, whole entry: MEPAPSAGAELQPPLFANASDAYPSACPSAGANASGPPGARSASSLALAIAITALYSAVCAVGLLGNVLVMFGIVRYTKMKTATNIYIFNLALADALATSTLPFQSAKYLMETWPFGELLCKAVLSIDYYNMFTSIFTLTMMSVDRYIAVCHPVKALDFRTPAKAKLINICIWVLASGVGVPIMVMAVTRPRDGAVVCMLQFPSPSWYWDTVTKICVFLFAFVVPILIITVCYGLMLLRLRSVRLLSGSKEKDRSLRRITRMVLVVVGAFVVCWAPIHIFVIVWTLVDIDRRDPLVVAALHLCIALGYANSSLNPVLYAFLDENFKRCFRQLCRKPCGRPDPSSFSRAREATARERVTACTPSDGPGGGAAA

Assays:
[1] = tested on: CHO; assay: Selectivity for human cloned kappa opioid receptor over human cloned delta opioid receptor expressed in CHO cells; type: cell-based
[2] = tested on: CHO; assay: Selectivity for human cloned kappa opioid receptor over human cloned mu opioid receptor expressed in CHO cells; type: cell-based
[3] = target: Mu-type opioid receptor (Homo sapiens) (UniProt P35372); assay: Antagonist activity at human cloned mu opioid receptor expressed in CHO cells assessed as inhibition of DAMGO-stimulated [35S]GTPgammaS binding; type: functional, cell-based
Method in brief: (§1)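 Agonist concentration-response curves for stimulated [35S]GTPγS binding are run with and without a single concentration of test compound. Ke = [L]/(DR−1), where DR is the ratio of agonist EC50 with and without compound. At least two compound concentrations are used, each chosen to give at least a 2-fold rightward EC50 shift and a clear upper asymptote.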

[4] = target: Kappa-type opioid receptor (Homo sapiens) (UniProt P41145); assay: Antagonist activity at human cloned kappa opioid receptor expressed in CHO cells assessed as inhibition of U69593-stimulated [35S]GTP-gamma-S binding; type: functional, cell-based; method in brief: as §1
[5] = target: Delta-type opioid receptor (Homo sapiens) (UniProt P41143); assay: Antagonist activity at human cloned delta opioid receptor expressed in CHO cells assessed as inhibition of DPDPE-stimulated [35S]GTP-gamma-S binding; type: functional, cell-based; method in brief: as §1

Question: What does the source list for `CC(C)[C@@H](CN1CC[C@@](C)(c2cccc(C(N)=O)c2)[C@@H](C)C1)NC(=O)[C@H]1Cc2ccc(O)cc2CN1`?
Answer: Ratio Ke [1]: 4780; Ratio Ke [2]: 210; Ke [3]: 21 nM; Ke [4]: 0.1 nM; Ke [5]: 478 nM
